Results as given in US6416965B2, “Screening methods for presqualene disphosphate analogs” (Brigham and Women's Hospital, priority 1997, dated 2002).

Protein sequences, listed by entry. Tags and fused reporters are not part of them.
UniProt P62993, whole entry: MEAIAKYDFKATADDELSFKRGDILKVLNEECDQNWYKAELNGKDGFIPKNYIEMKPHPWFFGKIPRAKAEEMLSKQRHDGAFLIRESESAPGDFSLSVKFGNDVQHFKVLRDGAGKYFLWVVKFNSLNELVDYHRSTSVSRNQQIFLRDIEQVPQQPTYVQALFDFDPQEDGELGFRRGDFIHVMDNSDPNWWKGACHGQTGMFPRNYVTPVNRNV

Target: T1, Gst-Grb2 fusion protein (Homo sapiens, UniProt P62993)
T1 construct: purchased Upstate Biotechnology 14-128
Assay: PSDP equilibrium binding assay to GST-GRB2
Conditions: excess unlabeled PSDP; albumin 50 μg; Sos 50 μg
Excerpt: SH2 and SH3 domains on intracellular proteins are thought to be critical sites of phosphorylation by specific kinases in the regulation of signal transduction (Pawson, T., Schlessinger, J., Current Biology, 1993; 3:434). Of special interest during inflammation and wound repair, these domains appear to play pivotal roles during cytokine (e.g., growth factors) signaling via tyrosine kinases. Granulocyte/macrophage-colony stimulating factor stimulates phosphate turnover in presqualene diphosphate and presqualene monophosphate (FIG. 3b) indicating a potential role for these compounds in cytokine signaling. Furthermore, SH2 or SH3 domains are present on important regulatory intracellular enzymes (e.g., PLCγ) and have been reported to play pivotal roles in neutrophil responses (e.g., NADPH oxidase activation) (Ree, SG, et al., Journal of Biological Chemistry, 1997; 272:15045) (McPhail, LC, Journal of Experimental Medicine, 1994; 180:2011) Therefore, it was determined whether polyisoprenyl phosphates could associate with these important intracellular phosphate-sensing domains. Equilibrium binding was determined for ^32PO4-PSDP (1 μM) to the adaptor protein, Grb2, which is known to carry two SH3 domains and one SH2 domain (Lowenstein, EJ, et al., Cell, 1992; 70:431). […] Bound material was separated from unbound by spin filtration (0.2 μm) and quantitated by scintillation counting. […]

## delipidated albumin: delipidated human serum albumin used as competing compound [reference compound]
  competition of radioligand (32PO4-PSDP) off Gst-Grb2: could be competed off
